From PubChem BioAssay AID602438 (Sanford-Burnham Center for Chemical Genomics, 2012)
Only a part is listed here, and it is no random draw. Some structures show a salt or complex split into parts, the way the source records it. Calls of active or inactive are those of the source.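 The calls were made as follows: active = inhibition or corrected inhibition above about 18%, plus a signal ratio from 0.5 to 1.5 (limit read from the data, passing the limit was not always enough); inactive = the rest.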

Sequences of proteins named here, by UniProt entry; tags and fusion partners are left off.
UniProt O14786, whole entry: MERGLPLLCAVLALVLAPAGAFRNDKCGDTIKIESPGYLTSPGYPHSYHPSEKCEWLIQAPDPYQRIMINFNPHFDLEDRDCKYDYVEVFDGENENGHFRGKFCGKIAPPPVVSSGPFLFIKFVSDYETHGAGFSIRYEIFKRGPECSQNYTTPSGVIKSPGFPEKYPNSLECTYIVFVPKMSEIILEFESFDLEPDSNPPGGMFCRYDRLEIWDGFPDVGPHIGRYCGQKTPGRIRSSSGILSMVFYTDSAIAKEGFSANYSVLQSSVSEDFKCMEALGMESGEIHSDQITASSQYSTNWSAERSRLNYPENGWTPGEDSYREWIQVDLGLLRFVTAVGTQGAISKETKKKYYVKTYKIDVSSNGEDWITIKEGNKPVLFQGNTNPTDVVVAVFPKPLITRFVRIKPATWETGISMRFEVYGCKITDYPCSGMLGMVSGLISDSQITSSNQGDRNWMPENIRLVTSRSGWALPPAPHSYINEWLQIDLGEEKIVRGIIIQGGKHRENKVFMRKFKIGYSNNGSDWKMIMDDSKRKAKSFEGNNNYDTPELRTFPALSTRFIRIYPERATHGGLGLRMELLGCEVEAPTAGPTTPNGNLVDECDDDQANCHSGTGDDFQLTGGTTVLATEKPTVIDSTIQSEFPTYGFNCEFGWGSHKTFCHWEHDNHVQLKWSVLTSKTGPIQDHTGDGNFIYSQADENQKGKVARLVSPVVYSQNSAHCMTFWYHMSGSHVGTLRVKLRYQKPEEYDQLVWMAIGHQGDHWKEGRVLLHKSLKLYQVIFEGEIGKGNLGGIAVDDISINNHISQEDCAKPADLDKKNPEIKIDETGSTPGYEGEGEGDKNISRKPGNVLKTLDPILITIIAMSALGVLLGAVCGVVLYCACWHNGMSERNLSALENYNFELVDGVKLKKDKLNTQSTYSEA

target: Neuropilin-1 (Homo sapiens) (UniProt O14786); assay: NRP-1/CendR peptide interaction modulators – biochemical, fluorescence polarization, uHTS, primary screen (AID 602438); details: FAM-RPARPAR peptide binding to NRP-1, fluorescence polarization; at 25 µM; active compounds read high

Row | Structure (SMILES) | inhibition
1 | COc1ccccc1OP(C)(=O)Nc1cccc(Br)c1 (centres undefined) | inactive: 15.6%
2 | Cc1cc(C)cc(OP(C)(=O)Nc2ccc(C)cc2C)c1 (centres undefined) | inactive: -6.3%
3 | CCOC(=O)c1ccc(NP(C)(=O)Oc2cc(C)cc(C)c2)cc1 (centres undefined) | inactive: 15.6%
4 | CP(=O)(Nc1cccc(Br)c1)Oc1ccccc1 (centres undefined) | inactive: -17.6%
5 | Cc1cc(C)cc(OP(C)(=O)Nc2ccccn2)c1 (centres undefined) | inactive: 2.8%
6 | Cc1ccc(C)c(NP(C)(=O)Oc2ccccc2)c1 (centres undefined) | inactive: 0.4%
7 | O=C(O)c1cccc(Nc2c([N+](=O)[O-])cc([N+](=O)[O-])cc2[N+](=O)[O-])c1 | inactive: 4.1%
8 | CC1=NCCc2c1[nH]c1ccccc21.O=[N+]([O-])c1cc([N+](=O)[O-])c(O)c([N+](=O)[O-])c1 | inactive: -16.9%
9 | CCOC(=O)C(CC)C1=NC(C)(C)Cc2ccccc21.O=[N+]([O-])c1cc([N+](=O)[O-])c(O)c([N+](=O)[O-])c1 (centres undefined) | inactive: -11%
10 | O=[N+]([O-])c1cc([N+](=O)[O-])c(Nc2nnnn2CCO)c([N+](=O)[O-])c1 | inactive: 11.2%
11 | CC1=C2N=C(C=C3N=C(C(C)=C4[N-][C@@](C)([C@@H]5N=C1[C@](C)(CCC(=O)NC[C@@H](C)OP(=O)([O-])O[C@H]1[C@@H](O)[C@@H](n6cnc7cc(C)c(C)cc76)O[C@@H]1CO)[C@H]5CC(N)=O)[C@@](C)(CC(N)=O)[C@@H]4CCC(N)=O)[C@@](C)(CC(N)=O)[C@@H]3CCC(N)=O)C(C)(C)[C@@H]2CCC(N)=O.[C-]#N.[Co+3] | active: 21.9%
12 | CN1CCCCC1COC(=O)C1(O)c2ccccc2CCc2ccccc21 (centres undefined) | inactive: -6.6%
13 | COc1ccccc1OP(C)(=O)Nc1c(C)cccc1C (centres undefined) | inactive: 8.6%
14 | CP(=O)(Nc1ccc(SC(F)(F)F)cc1)Oc1ccccc1 (centres undefined) | inactive: 4.3%
15 | CCCOc1ccc(NP(C)(=O)Oc2ccc(Cl)cc2)cc1 (centres undefined) | inactive: 13.4%
16 | COc1ccc(-c2ccccn2)cc1.O=[N+]([O-])c1cc([N+](=O)[O-])c(O)c([N+](=O)[O-])c1 | inactive: -9.2%
17 | O=[N+]([O-])c1cc([N+](=O)[O-])c(-n2nnc3ccccc32)c([N+](=O)[O-])c1 | inactive: 7.1%
18 | CN(Cc1cccnc1)C(=O)COc1ccc(Cl)c(Cl)c1.O=[N+]([O-])c1cc([N+](=O)[O-])c(O)c([N+](=O)[O-])c1 | inactive: -3.5%
19 | O=[N+]([O-])c1cc([N+](=O)[O-])c(-c2cnn(-c3ccccc3)c2)c([N+](=O)[O-])c1 | inactive: 11.7%
20 | Cc1nc2ccc3ccccc3c2s1.O=[N+]([O-])c1cc([N+](=O)[O-])c(O)c([N+](=O)[O-])c1 | inactive: 3.9%
21 | CP(=O)(Oc1ccccc1)OC(c1ccccc1)C(F)(F)F (centres undefined) | inactive: -6.9%
22 | CP(=O)(Nc1ccc(SC(F)(F)F)cc1)Oc1ccc(Cl)cc1 (centres undefined) | inactive: 4.2%
23 | Cc1ccc(Nc2c([N+](=O)[O-])cc([N+](=O)[O-])cc2[N+](=O)[O-])cc1 | active: 26.5%
24 | Cc1cccc(C)c1OP(C)(=O)Nc1ccc(SC(F)(F)F)cc1 (centres undefined) | inactive: 14.6%
25 | Cc1cc(C)cc(OP(C)(=O)Nc2ccc(SC(F)(F)F)cc2)c1 (centres undefined) | active: 32.1%

Row | Structure (SMILES) | inhibition
26 | CCc1ccc(OP(C)(=O)N2CCN(c3ccc([N+](=O)[O-])cc3)CC2)cc1 (centres undefined) | inactive: 0.6%
27 | CP(=O)(NC(=O)Nc1ccccc1)Oc1ccccc1 (centres undefined) | inactive: 5.9%
28 | CCOP(C)(=S)SCC(=O)NC(C)C(=O)O (centres undefined) | inactive: 3.3%
29 | O=[N+]([O-])c1cc([N+](=O)[O-])c(O)c([N+](=O)[O-])c1.c1ccc(Oc2ccncc2)cc1 | inactive: -2.6%
30 | CCOC(=O)c1ccc(NP(C)(=O)Oc2ccc(OC)cc2)cc1 (centres undefined) | inactive: 13.2%
31 | CP(=O)(Nc1ccccn1)Oc1ccc(Cl)cc1 (centres undefined) | inactive: 2.9%
32 | CP(=S)(Nn1cnnc1)Oc1ccccc1 (centres undefined) | inactive: 5.4%
33 | COc1ccccc1OP(C)(=O)Nc1ccccc1 (centres undefined) | inactive: 12.2%
34 | CP(=O)(Nc1ccccc1Br)Oc1ccccc1 (centres undefined) | inactive: -5.9%
35 | O=[N+]([O-])c1cc([N+](=O)[O-])c(Nc2cccnc2)c([N+](=O)[O-])c1 | inactive: 2%
36 | Cc1cccc(C)c1OP(C)(N)=O (centres undefined) | inactive: 16.1%
37 | CC(C)(C)c1ccc(OP(C)(=O)Nc2ccc(SC(F)(F)F)cc2)cc1 (centres undefined) | inactive: -20.5%
38 | O=[N+]([O-])c1ccc2c(c1)C=Nc1ccccc1O2 | inactive: 1.3%
39 | CCOC(=O)c1ccc(NP(C)(=O)Oc2ccccc2)cc1 (centres undefined) | inactive: 1.2%
40 | Cc1ccc(NP(C)(=O)Oc2ccccc2)c(C)c1 (centres undefined) | inactive: -7.5%
41 | COc1ccccc1OP(C)(=O)Nc1ccc(C)cc1 (centres undefined) | inactive: 5.6%
42 | COc1ccc(OP(C)(=O)Nc2cccc(F)c2)cc1 (centres undefined) | inactive: 4.1%
43 | COc1ccccc1OP(C)(=O)Nc1cc(Cl)ccc1C (centres undefined) | inactive: 7.9%
44 | Cc1cc(C)cc(OP(C)(N)=O)c1 (centres undefined) | inactive: 1.9%
45 | CCN(CC)CCCOC(=O)C(O)(c1ccccc1)c1ccccc1 | inactive: -9.3%
46 | COc1ccccc1-c1ccccn1.O=[N+]([O-])c1cc([N+](=O)[O-])c(O)c([N+](=O)[O-])c1 | inactive: -7.1%
47 | COc1ccccc1OP(C)(=O)Nc1ccc(Br)cc1 (centres undefined) | inactive: -1.3%
48 | CN(C)CCOC(=O)C(O)(c1ccccc1)C1CCCC1 (centres undefined) | inactive: 0.3%
49 | COc1ccc(OP(C)(=O)Nc2ccccn2)cc1 (centres undefined) | inactive: -5.5%
50 | O=[N+]([O-])c1cc([N+](=O)[O-])c(Nc2ccccn2)c([N+](=O)[O-])c1 | inactive: 13.4%

Row | Structure (SMILES) | inhibition
51 | Cc1c(NP(C)(=O)Oc2ccc(C(C)C)cc2)c(=O)n(-c2ccccc2)n1C (centres undefined) | inactive: 0.2%
52 | CCc1ccc(OP(C)(=O)O)cc1 | inactive: -2.3%
53 | COc1ccccc1OP(C)(=O)Nc1ccc(C)cc1C (centres undefined) | inactive: -0.1%
54 | CP(=O)(Nc1ccccn1)Oc1ccccc1 (centres undefined) | inactive: -9.6%
55 | Cc1cc(C)cc(OP(C)(=O)Nc2cccc(C(F)(F)F)c2)c1 (centres undefined) | inactive: 6.5%
56 | O=C1C(O)=C([N+](=O)[O-])C(=O)C(O)=C1[N+](=O)[O-] | inactive: 17.9%
57 | COc1ccc(OP(C)(=O)Nc2ccccc2Br)cc1 (centres undefined) | inactive: 4.6%
58 | COc1ccccc1OP(C)(=O)Nc1ccc(C)c(C)c1 (centres undefined) | inactive: 7.3%
59 | CP(=O)(OCCOc1ccccc1)OCCOc1ccccc1 | inactive: 6.6%
60 | CCCCCCCCCCCCCCCC1C[N+](C)(C)CCOP(C)(=O)O1 (centres undefined) | inactive: 8.5%
61 | CP(=O)(Nc1ccc(Cl)cc1Cl)Oc1ccccc1 (centres undefined) | inactive: -9.2%
62 | CP(=O)(OC12CC3CC(CC(C3)C1)C2)OC12CC3CC(CC(C3)C1)C2 | inactive: 12.4%
63 | CCOC(=O)c1ccc(NP(C)(=O)Oc2ccc(Cl)cc2)cc1 (centres undefined) | inactive: -0.5%
64 | COc1ccc(OP(C)(=O)Nc2ccc(Br)cc2)cc1 (centres undefined) | inactive: -1.2%
65 | CCN(CC)CC(O)COC(=O)C(O)(c1ccccc1)C1CCCCC1 (centres undefined) | inactive: -4.6%
66 | CCc1ccc(OP(C)(=O)Nc2cccnc2)cc1 (centres undefined) | inactive: 0.9%
67 | CP(=O)(Oc1ccccc1)N1CCOC1=O (centres undefined) | inactive: -3.8%
68 | O=C(OCCCN1CCCC1)C(O)(c1ccccc1)C1CCCCC1 (centres undefined) | inactive: -13.5%
69 | COc1ccccc1OP(C)(=O)Nc1c(C)n(C)n(-c2ccccc2)c1=O (centres undefined) | active: 29.6%
70 | CP(=O)(Nc1ccc(Cl)cc1)Oc1ccc(F)cc1 (centres undefined) | inactive: -7.6%
71 | CC(C)(C)c1ccc(OP(C)(=O)O)cc1 | inactive: 3.8%
72 | COc1ccccc1OP(C)(=O)Nc1ccccc1Br (centres undefined) | inactive: 2%
73 | CN(C)C(=O)c1c([N+](=O)[O-])cc([N+](=O)[O-])cc1[N+](=O)[O-] | inactive: 2.3%
74 | CP(=O)(Nc1ccc(SC(F)(F)F)cc1)Oc1ccc(F)cc1 (centres undefined) | inactive: 5.1%
75 | CCOP(C)(=S)SCC(=O)NC(C)(CC)C(=O)O (centres undefined) | inactive: -1.7%

Row | Structure (SMILES) | inhibition
76 | CP(=O)(Nc1ccc2c(c1)OCCO2)Oc1ccccc1 (centres undefined) | inactive: 3.9%
77 | O=[N+]([O-])c1cc([N+](=O)[O-])c(C(F)(F)F)c([N+](=O)[O-])c1O | inactive: -8.8%
78 | Cc1ccccc1NP(C)(=O)Nc1ccccc1C | inactive: -4.6%
79 | COc1ccc(OP(C)(=O)Nc2cccc(Br)c2)cc1 (centres undefined) | inactive: 0.9%
80 | COc1ccc(NP(C)(=O)Oc2ccccc2OC)cc1 (centres undefined) | inactive: -1.9%
81 | CN(C)CCOC(=O)C(O)(c1ccccc1)C1CCCCC1 (centres undefined) | inactive: 2.6%
82 | Cc1cc(-c2cccc3ccccc23)c(C)cn1.O=[N+]([O-])c1cc([N+](=O)[O-])c(O)c([N+](=O)[O-])c1 | inactive: -5.5%
83 | O=[N+]([O-])c1cc([N+](=O)[O-])c(NCC2CCS(=O)(=O)C2)c([N+](=O)[O-])c1 (centres undefined) | inactive: 14.1%
84 | O=[N+]([O-])c1ccc(OP2(=O)COCCO2)cc1 (centres undefined) | inactive: -0.6%
85 | Cc1c(C(c2ccc3c(c2)OCO3)c2c(C)n(C)n(-c3ccccc3)c2=O)c(=O)n(-c2ccccc2)n1C.O=[N+]([O-])c1cc([N+](=O)[O-])c(O)c([N+](=O)[O-])c1 | inactive: 5.1%
86 | CCN(CC)CCCNc1ccccc1[N+](=O)[O-].O=[N+]([O-])c1cc([N+](=O)[O-])c(O)c([N+](=O)[O-])c1 | inactive: -2.4%
87 | COc1ccc(OP(C)(=O)Nc2ccc(SC(F)(F)F)cc2)cc1 (centres undefined) | inactive: -10.2%
88 | CCOC(=O)c1ccc(NP(C)(=O)Oc2ccc(F)cc2)cc1 (centres undefined) | inactive: 0.9%
89 | CCN(CC)CCCOC(=O)C(O)(c1ccccc1)C1CCCCC1 (centres undefined) | inactive: -3.8%
90 | Cc1c([N+](=O)[O-])cc([N+](=O)[O-])c(Br)c1[N+](=O)[O-] | inactive: -0.8%
91 | CCCCCOc1ccc(NP(C)(=O)Oc2ccc(Cl)cc2Cl)cc1 (centres undefined) | inactive: 8.2%
92 | O=[N+]([O-])c1cc([N+](=O)[O-])c(OC2CCCCC2O)c([N+](=O)[O-])c1 (centres undefined) | inactive: -11.1%
93 | CP(=O)(Nc1ccccc1)Oc1ccc(F)cc1 (centres undefined) | inactive: 0.2%
94 | O=[N+]([O-])c1cc([N+](=O)[O-])c(Nc2ccc(Cl)cc2)c([N+](=O)[O-])c1 | inactive: 0.2%
95 | CC(C)c1ccc(OP(C)(=O)Nc2ccc(SC(F)(F)F)cc2)cc1 (centres undefined) | inactive: -8.1%
96 | CP(=O)(Nc1ccccc1F)Oc1ccccc1 (centres undefined) | inactive: -7.7%
97 | O=C(OCCN1CCN(CCOCc2ccccc2)CC1)C(O)(c1ccccc1)c1ccccc1 | inactive: 3.8%
98 | O=C(OC1CN2CCC1CC2)c1ccc([N+](=O)[O-])cc1 (centres undefined) | inactive: 6.2%
99 | COc1ccc2c(c1O)-c1c(O)c(OC)cc3c1[C@H](C2)[N+](C)(C)CC3.O=[N+]([O-])c1cc([N+](=O)[O-])c([O-])c([N+](=O)[O-])c1[O-] | inactive: 10.2%
